Data reported in patent US20160084841A1, “Method for Predicting Clinical Effect of Immunotherapy” (INTERNATIONAL INSTITUTE OF CANCER IMMUNOLOGY, INC., priority 2013, published 2016).

System: pancreatic cancer patient
Assay: Anti-WT1126 IgG antibody titer (ELISA) in serum of a patient given WT1126 peptide and an anticancer agent
Type: in vivo, human
Details: one pancreatic cancer patient, combination with an anticancer agent; before vs 7 months after start; ELISA antigen WT1-frg1; FIG. 20
Method: From a pancreatic cancer patient receiving a combination therapy with WT1126 peptide and an anticancer agent, a serum sample was obtained before the start of administration of the vaccine and at 7 months after the start of administration. Each serum sample was stored at −20° C. until assay.
The measurement of the antibody titer using WT1-frg1 (SEQ ID NO: 64) was performed in the same way as in the aforementioned WT1-frg3 (SEQ ID NO: 57). The measurement of the antibody titer using WT126-134 (SEQ ID NO: 65), WK126-134 (SEQ ID NO: 66), WT128-134 (SEQ ID NO: 67), WT126-132 (SEQ ID NO: 68), WT129-134 (SEQ ID NO: 69), WT126-131 (SEQ ID NO: 70), or WT126-130 (SEQ ID NO: 71) was performed in the same way as in the aforementioned WT332-347 (SEQ ID NO: 58), etc.

For RMFPNAPYL [WT1126 peptide], which “anti-WT1126 IgG antibody titer after the start of administration of the vaccine” value is on record?
The value was “increase in anti-WT1126 IgG antibody titer was detected”.
